{
  "sequences": {"note": "Chains of the proteins cited; added tags and fusions are not shown. A line that says so, or that is headed by a name, gives the form on record, which may keep a tag or linker. Residues count along the entry.", "UniProt P02745, 23-245": "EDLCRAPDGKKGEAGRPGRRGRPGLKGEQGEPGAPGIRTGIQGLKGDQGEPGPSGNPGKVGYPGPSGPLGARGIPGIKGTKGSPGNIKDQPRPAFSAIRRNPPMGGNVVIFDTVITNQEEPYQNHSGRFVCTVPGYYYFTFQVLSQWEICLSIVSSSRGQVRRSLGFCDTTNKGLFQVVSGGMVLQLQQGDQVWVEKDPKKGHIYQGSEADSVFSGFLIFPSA", "Human C1q, UniProt P02746, 28-253": "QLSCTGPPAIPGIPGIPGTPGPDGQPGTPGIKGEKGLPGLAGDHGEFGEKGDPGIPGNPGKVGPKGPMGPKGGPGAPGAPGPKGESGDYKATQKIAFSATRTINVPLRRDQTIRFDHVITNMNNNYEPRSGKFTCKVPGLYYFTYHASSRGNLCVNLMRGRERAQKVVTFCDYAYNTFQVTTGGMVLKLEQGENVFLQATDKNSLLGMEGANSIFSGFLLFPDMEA", "Human C1q, UniProt P02747, 29-245": "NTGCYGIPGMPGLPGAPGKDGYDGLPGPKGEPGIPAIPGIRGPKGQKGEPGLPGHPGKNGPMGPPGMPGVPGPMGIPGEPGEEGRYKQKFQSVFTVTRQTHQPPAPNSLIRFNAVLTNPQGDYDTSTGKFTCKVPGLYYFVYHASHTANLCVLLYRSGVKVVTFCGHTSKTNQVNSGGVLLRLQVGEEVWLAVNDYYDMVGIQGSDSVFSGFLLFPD", "VEGF dual dAb (human), light, as listed by the source, chain 2 of 2": "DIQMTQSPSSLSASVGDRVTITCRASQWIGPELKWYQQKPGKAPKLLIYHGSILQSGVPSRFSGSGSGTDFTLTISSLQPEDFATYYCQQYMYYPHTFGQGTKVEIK", "VEGF dual dAb (human), heavy, as listed by the source, chain 1 of 2": "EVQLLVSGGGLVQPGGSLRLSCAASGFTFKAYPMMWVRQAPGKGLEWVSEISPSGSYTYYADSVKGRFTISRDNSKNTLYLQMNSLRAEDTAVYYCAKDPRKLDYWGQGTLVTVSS"},
  "source": "paper PMC4786692",
  "target": "VEGF dual dAb (human)",
  "test": "SPR; ProteOn GLM chip; VEGF dual dAb alone or in complex with VEGF-165 immobilised by amine coupling; C1q injected at 1-256 nM; 25 °C, HBS-N + 10 mM CaCl2; equilibrium model",
  "data": [
    {"substance": "Human C1q (from UniProt P02745 23-245; P02746 28-253; P02747 29-245) (complex)", "values": [
      {"measurement": "Kd", "value": 7.51, "unit": "nM"}
    ]}
  ]
}
